Measurements taken from patent publication US5043328A (dated 1991).

Settings: 1440 min

Stabilization (% remaining unsaturated fatty acid by Method 1): 92%
Substance: Sucrose palmitate stearate 15 [Example 66]
